Target: telomerase (Homo sapiens, UniProt O14746)
Assay: In vitro model of fibrosis: TGFβ and bleomycin treated SAECs, gel TRAP assay
Format: cell-based
Conditions: bleomycin 10 ug/ml, TGFβ 10 ng/ml

The chains behind the UniProt entries cited, without tags or fusion partners. Where a name states a change or a piece, a line headed by the entry shows the natural chain unless it says otherwise.
UniProt O14746: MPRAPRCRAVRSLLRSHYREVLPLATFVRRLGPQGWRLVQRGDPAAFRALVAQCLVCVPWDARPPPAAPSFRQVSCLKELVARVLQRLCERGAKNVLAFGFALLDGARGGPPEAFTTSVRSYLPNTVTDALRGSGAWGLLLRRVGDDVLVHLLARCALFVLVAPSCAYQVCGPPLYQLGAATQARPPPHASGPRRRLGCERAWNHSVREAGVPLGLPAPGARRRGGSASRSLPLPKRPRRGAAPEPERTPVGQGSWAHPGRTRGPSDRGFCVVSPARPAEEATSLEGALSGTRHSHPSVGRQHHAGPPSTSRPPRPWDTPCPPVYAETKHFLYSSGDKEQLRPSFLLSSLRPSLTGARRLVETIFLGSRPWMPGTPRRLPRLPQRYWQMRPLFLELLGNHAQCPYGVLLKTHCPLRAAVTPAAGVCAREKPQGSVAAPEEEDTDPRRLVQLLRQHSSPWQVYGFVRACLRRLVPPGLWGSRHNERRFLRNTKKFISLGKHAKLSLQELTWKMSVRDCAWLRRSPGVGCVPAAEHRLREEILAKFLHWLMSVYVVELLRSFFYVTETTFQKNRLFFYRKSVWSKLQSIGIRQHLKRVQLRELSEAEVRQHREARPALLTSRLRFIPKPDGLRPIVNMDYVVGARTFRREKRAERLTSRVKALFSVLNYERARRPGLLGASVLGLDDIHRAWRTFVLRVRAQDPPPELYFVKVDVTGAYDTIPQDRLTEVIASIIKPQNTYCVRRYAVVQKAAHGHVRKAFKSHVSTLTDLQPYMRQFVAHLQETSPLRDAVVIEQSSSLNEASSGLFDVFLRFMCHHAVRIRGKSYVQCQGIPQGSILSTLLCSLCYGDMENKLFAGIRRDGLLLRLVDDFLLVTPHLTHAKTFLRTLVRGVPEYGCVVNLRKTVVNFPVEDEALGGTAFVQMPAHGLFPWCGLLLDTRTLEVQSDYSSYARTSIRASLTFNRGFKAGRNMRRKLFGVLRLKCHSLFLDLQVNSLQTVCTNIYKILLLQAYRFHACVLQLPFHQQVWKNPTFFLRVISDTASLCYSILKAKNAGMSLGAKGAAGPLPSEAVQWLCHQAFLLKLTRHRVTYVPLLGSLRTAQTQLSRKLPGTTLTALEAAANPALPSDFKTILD

**Q.** For TGFβ, which “effect on SAEC telomerase activity” value is on record?
**A.** suppressed SAEC telomerase activity
